Assay results taken from patent publication US6472438B1, “Active topical skin protectants containing S-330” (dated 2002).

Experiment: Reaction of S-330 with nerve agents

SMILES: N=C1N(Cl)C2(c3ccccc3)N(Cl)C(=N)N(Cl)C2(c2ccccc2)N1Cl (stereo not shown)
- Reactivity with nerve agents: does not react with nerve agents
